Measured values reported in patent publication US20250368649A1, “TETRAHYDROPYRIDOPYRIMIDINE PAN-KRAS INHIBITORS” (Mirati Therapeutics, Inc., priority 2022, published 2025).

Sequences of proteins named here, by UniProt entry; tags and fusion partners are left off. A change or cut given only in a name is not applied to a line headed by its entry.
UniProt P01116: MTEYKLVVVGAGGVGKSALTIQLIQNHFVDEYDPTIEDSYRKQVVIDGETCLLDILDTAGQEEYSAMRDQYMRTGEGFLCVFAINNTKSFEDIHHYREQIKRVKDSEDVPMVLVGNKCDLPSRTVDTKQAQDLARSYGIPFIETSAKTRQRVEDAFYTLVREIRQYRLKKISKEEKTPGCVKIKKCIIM

Tests used:
Assay in all cases: biochemical
[1] = target: KRas G12R (Homo sapiens, UniProt P01116, G12R); details: Binding to KRas (IC50 nM) G12R, TR-FRET displacement
[2] = target: KRas G12D (Homo sapiens, UniProt P01116, G12D); details: Binding to KRas (IC50 nM) G12D, TR-FRET displacement
[3] = target: KRas G12V (Homo sapiens, UniProt P01116, G12V); details: Binding to KRas (IC50 nM) G12V, TR-FRET displacement

IC50 [1]	IC50 [2]	IC50 [3]	SMILES
53 nM	229 nM	35 nM	CCc1cccc2cccc(N3CCc4c(nc(OCC56CCCN5CCC6)nc4N4CCC(O)CC(S(C)(=O)=O)C4)C3)c12 (single isomer, unassigned) [Example 480, 1-(7-(8-ethylnaphthalen-1-yl)-2-((tetrahydro-1H-pyrrolizin-7a(5H)-yl)methoxy)-5,6,7,8-tetrahydropyrido[3,4-d]pyrimidin-4-yl)-6-(methylsulfonyl)azepan-4-ol]
703 nM	817 nM	333 nM	Cc1cc2[nH]ncc2c(N2CCc3c(nc(OCC45CCCN4CCC5)nc3N3CCCC4(CC(O)C4)C3)C2)c1C (single isomer, unassigned; isomer 2) [Example 454, 6-(7-(5,6-dimethyl-1H-indazol-4-yl)-2-((hexahydro-1H-pyrrolizin-7a-yl)methoxy)-5,6,7,8-tetrahydropyrido[3,4-d]pyrimidin-4-yl)-6-azaspiro[3.5]nonan-2-ol (isomer 2)]
3260 nM	3190 nM	422 nM	CCc1c(F)ccc2cc(O)cc(N3CCc4c(nc(OC[C@@]56CCCN5C[C@H](F)C6)nc4N4CCCc5c(cnn5C5COC5)C4)C3)c12 [Example 243, 5-ethyl-6-fluoro-4-(2-(((2R,7aS)-2-fluorohexahydro-1H-pyrrolizin-7a-yl)methoxy)-4-(1-(oxetan-3-yl)-7,8-dihydropyrazolo[4,3-c]azepin-5(1H,4H,6H)-yl)-5,6-dihydropyrido[3,4-d]pyrimidin-7(8H)-yl)naphthalen-2-ol]
515 nM	1570 nM	147 nM	C=Cc1ncc2n1CCN(c1nc(OC[C@@]34CCCN3C[C@H](F)C4)nc3c1CCN(c1cc(O)cc4ccc(F)c(CC)c14)C3)C2 [Example 248, 5-ethyl-6-fluoro-4-(2-(((2R,7aS)-2-fluorohexahydro-1H-pyrrolizin-7a-yl)methoxy)-4-(3-vinyl-5,6-dihydroimidazo[1,5-a]pyrazin-7(8H)-yl)-5,6-dihydropyrido[3,4-d]pyrimidin-7(8H)-yl)naphthalen-2-ol]
< 2 nM	< 2 nM	< 2 nM	CCc1c(F)ccc2cc(O)cc(N3CCc4c(nc(OC[C@@]56CCCN5C[C@H](F)C6)nc4N4CCCn5nc(C(=O)N6C7CC6CN(C)C7)cc5C4)C3)c12 [Example 271, (5-(7-(8-ethyl-7-fluoro-3-hydroxynaphthalen-1-yl)-2-(((2R,7aS)-2-fluorohexahydro-1H-pyrrolizin-7a-yl)methoxy)-5,6,7,8-tetrahydropyrido[3,4-d]pyrimidin-4-yl)-5,6,7,8-tetrahydro-4H-pyrazolo[1,5-a][1,4]diazepin-2-yl)(3-methyl-3,6-diazabicyclo[3.1.1]heptan-6-yl)methanone]
–	2720 nM	235 nM	CCc1cccc2cccc(N3CCc4c(nc(OCC5(CN(C)C)CC5)nc4N4CCOC5COCC5C4)C3)c12 (stereo not drawn) [Example 521, 1-(1-(((7-(8-ethylnaphthalen-1-yl)-4-(hexahydrofuro[3,4-f][1,4]oxazepin-4(5H)-yl)-5,6,7,8-tetrahydropyrido[3,4-d]pyrimidin-2-yl)oxy)methyl)cyclopropyl)-N,N-dimethylmethanamine]
–	3060 nM	1850 nM	CCc1cccc2cccc(N3CCc4c(nc(OCC5(CN(C)C)CC5)nc4N4CCCC(c5cn(C)nn5)C4)C3)c12 (stereo not drawn) [Example 522, 1-(1-(((7-(8-ethylnaphthalen-1-yl)-4-(3-(1-methyl-1H-1,2,3-triazol-4-yl)piperidin-1-yl)-5,6,7,8-tetrahydropyrido[3,4-d]pyrimidin-2-yl)oxy)methyl)cyclopropyl)-N,N-dimethylmethanamine]
–	3570 nM	491 nM	CCc1cccc2cccc(N3CCc4c(nc(OCC5(CN(C)C)CC5)nc4N4CCCC(c5nc(N)n(C)n5)C4)C3)c12 (stereo not drawn) [Example 523, 3-(1-(2-((1-((dimethylamino)methyl)cyclopropyl)methoxy)-7-(8-ethylnaphthalen-1-yl)-5,6,7,8-tetrahydropyrido[3,4-d]pyrimidin-4-yl)piperidin-3-yl)-1-methyl-1H-1,2,4-triazol-5-amine]
–	4250 nM	14000 nM	CCc1cccc2cccc(N3CCc4c(nc(OCC5(CN(C)C)CC5)nc4N4CCn5ncc(S(N)(=O)=O)c5C4)C3)c12 [Example 524, 5-(2-((1-((dimethylamino)methyl)cyclopropyl)methoxy)-7-(8-ethylnaphthalen-1-yl)-5,6,7,8-tetrahydropyrido[3,4-d]pyrimidin-4-yl)-4,5,6,7-tetrahydropyrazolo[1,5-a]pyrazine-3-sulfonamide]
–	5220 nM	4500 nM	CCc1cccc2cccc(N3CCc4c(nc(OCC5(CN(C)C)CC5)nc4NCc4nc(C5(O)CCOCC5)n[nH]4)C3)c12 [Example 525, 4-(5-(((2-((1-((dimethylamino)methyl)cyclopropyl)methoxy)-7-(8-ethylnaphthalen-1-yl)-5,6,7,8-tetrahydropyrido[3,4-d]pyrimidin-4-yl)amino)methyl)-1H-1,2,4-triazol-3-yl)tetrahydro-2H-pyran-4-ol]
–	6140 nM	14100 nM	CCc1cccc2cccc(N3CCc4c(nc(OCC5(CN(C)C)CC5)nc4NCc4nn(C)c(C)c4S(N)(=O)=O)C3)c12 [Example 527, 3-(((2-((1-((dimethylamino)methyl)cyclopropyl)methoxy)-7-(8-ethylnaphthalen-1-yl)-5,6,7,8-tetrahydropyrido[3,4-d]pyrimidin-4-yl)amino)methyl)-1,5-dimethyl-1H-pyrazole-4-sulfonamide]
–	3300 nM	2400 nM	CCc1cccc2cccc(N3CCc4c(nc(OCC5(CN(C)C)CC5)nc4N4CCCC(c5nnc(N)o5)C4)C3)c12 (stereo not drawn) [Example 693, 5-(1-(2-((1-((dimethylamino)methyl)cyclopropyl)methoxy)-7-(8-ethylnaphthalen-1-yl)-5,6,7,8-tetrahydropyrido[3,4-d]pyrimidin-4-yl)piperidin-3-yl)-1,3,4-oxadiazol-2-amine]
–	3910 nM	3990 nM	CCc1cccc2cccc(N3CCc4c(nc(OCC5(CN(C)C)CC5)nc4NCc4nc(-c5ccco5)n[nH]4)C3)c12 [Example 695, 2-((1-((dimethylamino)methyl)cyclopropyl)methoxy)-7-(8-ethylnaphthalen-1-yl)-N-((3-(furan-2-yl)-1H-1,2,4-triazol-5-yl)methyl)-5,6,7,8-tetrahydropyrido[3,4-d]pyrimidin-4-amine]
–	5160 nM	1960 nM	CCc1cccc2cccc(N3CCc4c(nc(OCC5(CN(C)C)CC5)nc4N4CCCC(c5n[nH]c(=O)o5)C4)C3)c12 (stereo not drawn) [Example 696, 5-(1-(2-((1-((dimethylamino)methyl)cyclopropyl)methoxy)-7-(8-ethylnaphthalen-1-yl)-5,6,7,8-tetrahydropyrido[3,4-d]pyrimidin-4-yl)piperidin-3-yl)-1,3,4-oxadiazol-2(3H)-one]
–	3780 nM	1460 nM	CCc1cccc2cccc(N3CCc4c(nc(OCC5(CN(C)C)CC5)nc4N4CCCC(c5n[nH]c(C)n5)C4)C3)c12 (stereo not drawn) [Example 697, 1-(1-(((7-(8-ethylnaphthalen-1-yl)-4-(3-(5-methyl-1H-1,2,4-triazol-3-yl)piperidin-1-yl)-5,6,7,8-tetrahydropyrido[3,4-d]pyrimidin-2-yl)oxy)methyl)cyclopropyl)-N,N-dimethylmethanamine]
–	6020 nM	4040 nM	CCc1cccc2cccc(N3CCc4c(nc(OCC5(CN(C)C)CC5)nc4NCc4nc(-c5ccccn5)n[nH]4)C3)c12 [Example 698, 2-((1-((dimethylamino)methyl)cyclopropyl)methoxy)-7-(8-ethylnaphthalen-1-yl)-N-((3-(pyridin-2-yl)-1H-1,2,4-triazol-5-yl)methyl)-5,6,7,8-tetrahydropyrido[3,4-d]pyrimidin-4-amine]
–	2030 nM	1120 nM	CCc1cccc2cccc(N3CCc4c(nc(OCC5(CN(C)C)CC5)nc4N(C)Cc4nnc5n4CCN(C)C5=O)C3)c12 [Example 702, 3-(((2-((1-((dimethylamino)methyl)cyclopropyl)methoxy)-7-(8-ethylnaphthalen-1-yl)-5,6,7,8-tetrahydropyrido[3,4-d]pyrimidin-4-yl)(methyl)amino)methyl)-7-methyl-6,7-dihydro-[1,2,4]triazolo[4,3-a]pyrazin-8(5H)-one]
–	3220 nM	3080 nM	CCc1cccc2cccc(N3CCc4c(nc(OCC5(CN(C)C)CC5)nc4NCc4nc(C(C)O)n[nH]4)C3)c12 (stereo not drawn) [Example 704, 1-(5-(((2-((1-((dimethylamino)methyl)cyclopropyl)methoxy)-7-(8-ethylnaphthalen-1-yl)-5,6,7,8-tetrahydropyrido[3,4-d]pyrimidin-4-yl)amino)methyl)-1H-1,2,4-triazol-3-yl)ethan-1-ol]
–	6280 nM	3320 nM	CCc1cccc2cccc(N3CCc4c(nc(OCC5(CN(C)C)CC5)nc4NCc4nc(C(C)(C)O)n[nH]4)C3)c12 [Example 707, 2-(5-(((2-((1-((dimethylamino)methyl)cyclopropyl)methoxy)-7-(8-ethylnaphthalen-1-yl)-5,6,7,8-tetrahydropyrido[3,4-d]pyrimidin-4-yl)amino)methyl)-1H-1,2,4-triazol-3-yl)propan-2-ol]
–	2260 nM	2470 nM	CCc1cccc2cccc(N3CCc4c(nc(OCC5(CN(C)C)CC5)nc4NCc4nc(C(C)O)n[nH]4)C3)c12 (stereo not drawn) [Example 708, 1-(5-(((2-((1-((dimethylamino)methyl)cyclopropyl)methoxy)-7-(8-ethylnaphthalen-1-yl)-5,6,7,8-tetrahydropyrido[3,4-d]pyrimidin-4-yl)amino)methyl)-1H-1,2,4-triazol-3-yl)ethan-1-ol]

SMILES	IC50 [1]	IC50 [2]	IC50 [3]
CCc1c(F)ccc2cc(O)cc(N3CCc4c(nc(OC[C@@]56CCCN5C[C@H](F)C6)nc4N4CCCn5nc(C(=O)N6CC7CCC(C6)N7C)cc5C4)C3)c12 [Example 270]	< 2 nM	< 2 nM	< 2 nM
